Yeast mating assay 2: variants of the scFv Ab-91

Binding partner: SARS-CoV-2 spike HR2 peptide, sequence PDVDLGDISGINAS.

Ab-91 is the parent antibody, in scFv form: VL, then a (GGGGS)3 linker, then VH. The light chain is unchanged in all variants.
VL: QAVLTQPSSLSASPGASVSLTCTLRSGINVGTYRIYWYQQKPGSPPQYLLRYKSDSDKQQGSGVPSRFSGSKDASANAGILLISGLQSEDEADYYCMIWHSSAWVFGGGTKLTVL
VH: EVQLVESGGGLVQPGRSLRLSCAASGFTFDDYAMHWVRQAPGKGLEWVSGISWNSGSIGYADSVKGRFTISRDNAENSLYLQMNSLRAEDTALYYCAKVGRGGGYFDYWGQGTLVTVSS

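The parent was found by panning a naive human phage display library on the peptide. AAYL51 was designed without a model: most single CDR substitutions and a random sample of double and triple ones. The scFvs were displayed on barcoded MATa yeast, the peptide on MATalpha yeast. Pairs that bind mate more often; barcode pairs of the diploids are counted by sequencing. A regression on co-assayed BCL2-family reference pairs converts the normalised counts of each replicate to an apparent Kd. The assay was run in three technical replicates.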

The parent's heavy chain CDRs are GFTFDDYAMH, GISWNSGSIGYADSVK, VGRGGGYFDY; each variant's own CDRs replace them letter for letter. This list gathers variants with a substitution at R101 (VH, numbered from residue 1). The read-out is the apparent dissociation constant on a log10 scale (nM): the lower, the stronger. The mean shown is taken over the replicates in which the pair was detected. An entry "nd" has no value in the source: the pair was not observed among the diploids in that replicate. This suggests poor binding but is not conclusive. For reference, the parent read 1.86 as the reference entry and 0.88 as a member of this library. Empty control strains, which show no peptide, gave a signal in 21% of pairings with library AAYL51; the median was 4.54 and 95% of these signals were weaker than 3.26. No background was subtracted.

CDR-H1	CDR-H2	CDR-H3	log10 Kd (nM) by replicate	mean, log10 nM
GFTFDDYLMH	GISWNSGSIGGADSVK	VGKGGGYFDY	nd / nd / nd	nd
GFTFDDYAMH	GISWDSGSIGYEDSVK	VGKGGGYFDY	nd / 5.65 / nd	5.65
GFTPDYYAMH	GISWNSGSIGYADSVK	VGGGGGYFDY	nd / nd / nd	nd
GFTFDDYTMH	GISWNSGSIGYADYVK	VGDGGGYFDY	nd / nd / nd	nd
GFTFDDYAMS	GISWNSGAIGYADSVK	VGHGGGYFDY	4.82 / 4.93 / 4.69	4.82
GFTFDDYAMH	GISWNSGSIEYADCVK	VGWGGGYFDY	4.88 / nd / nd	4.88
GFTFWDYAMH	GISWNSGSIGYADSVK	VGHGGGYFDY	2.66 / 3.04 / 2.43	2.71
GFTEDDYAMH	GISWNSGSIGYADSVK	VGHRGGYFDY	nd / nd / nd	nd
GFTFDDYAMH	GIGWNSHSIGYADSVK	VGTGGGYFDY	3.32 / 3.43 / 3.18	3.31
GFTFDDYAMH	GISWNSGSIGYADSVK	VGLGGGYFDY	1.97 / 1.86 / 1.86	1.90
NYTFDDYAMH	GISWNSGSIGYADSVK	VGCGGGYFDY	nd / nd / nd	nd
GFTFDDYAMH	GISWNGGNIGYADSVK	VGSGGGYFDY	nd / nd / nd	nd
GFTSDDYAMH	GIQWNSGSIGYADSVK	VGNGGGYFDY	5.65 / 6.05 / 5.85	5.85
GFTFDDYAMH	GISWNSGSIKYADSVK	VGPGGGAFDY	nd / nd / nd	nd
GFPFDDYAMH	GISWNSGSIGYADSVH	VGYGGGYFDY	2.50 / 2.31 / 3.04	2.62
GFTFDDYAMH	GISWNSGSIGWHDSVK	VGHGGGYFDY	5.04 / 6.65 / 5.59	5.76
GFTFDDYAMH	GISWNSGSIGVADSVK	VGVGGGYFTY	nd / nd / nd	nd
GFTFDDYAMH	GISWNSGSISHADSVK	VGVGGGYFDY	4.76 / nd / 4.35	4.56
GFTFDDYDMH	GISWNSGSIGYADYVK	VGVGGGYFDY	4.30 / 5.24 / nd	4.77
GFTSDDYAMH	GIVWNSGSIGYADSVK	VGQGGGYFDY	5.28 / 4.95 / 5.73	5.32
GFTFDDYAMH	GISWNSGSIGYADSVK	VGFGGGYFDY	2.53 / 2.70 / 2.96	2.73
GFTADDYAMH	GISLNSGSIGYADSVK	VGVGGGYFDY	nd / nd / nd	nd
GPTFDDYAMH	GISWNSGSIGYADSVK	VGSGGGYFDY	nd / 4.06 / nd	4.06
GFTFDDYAEH	GISWNSGSIGYADSVK	VGSGGGYADY	nd / nd / nd	nd
GFTCDDYAMH	GISWNSGSIGYAKSVK	VGKGGGYFDY	3.64 / 4.62 / 3.98	4.08
GFTFDRYAMH	GISWNSGSIGYADSVK	VGHGHGYFDY	0.94 / 1.01 / 0.30	0.75
GFTFDDYAGH	RISWNSGSIGYADSVK	VGQGGGYFDY	5.12 / 5.29 / nd	5.20
GFTFDDYAMH	GESWNSGSIGYADSVK	VGTGGGYFDY	3.52 / 5.01 / nd	4.26
GFTFDDYAMH	GISWNSGSIGMADSVK	VHQGGGYFDY	nd / nd / nd	nd
GFTFDDYAMH	GISWNSGSIGYPDSVK	VGHGGGYFDD	nd / nd / nd	nd
GFTFDDYAMH	GISWNSGSIGYADMVK	VHWGGGYFDY	nd / nd / nd	nd
GFTFDDYAMH	GQSWNSGSIGYADSVK	VGNGGGYLDY	nd / nd / nd	nd
GFTFDDYAMH	GISWNSGSIGYADSVK	VGVGGGYFDY	2.76 / 2.44 / 2.79	2.66
GFTFDDYAMH	GISWNSGSIGYADWVK	VGHGGGYCDY	2.05 / 1.73 / 1.39	1.72
GFTFDDYAMH	GISWNSGFIGYADSVK	VGEGGGYEDY	4.20 / nd / nd	4.20
GFTFDDYAMH	GISWNSNSIGYADSVK	VGQGGGYFDH	nd / nd / nd	nd
GFTFDDYAMH	GISWNSGSDGYADSVK	VGKGPGYFDY	1.34 / 1.18 / 0.70	1.07
GFTFDDYAMH	SISWNSGSIGAADSVK	VGIGGGYFDY	nd / nd / 4.91	4.91
GFTFDDHAMH	GISWNSGSIGYADSVR	VGCGGGYFDY	2.51 / 2.55 / 2.61	2.56
NFTFDDYAMH	GISWNSGSIGYADSVK	VGYGGGYFFY	nd / 4.55 / nd	4.55
GFTFDPYAMH	GISWNSGSIGGADSVK	VGVGGGYFDY	4.81 / nd / nd	4.81
GFQFDDYAMH	GISWNSGSIGYADSVK	VGYGGGYFPY	nd / nd / nd	nd
GFTFDMYAMH	GISWNSGSIGYADSVK	VGFGGGYFDY	3.20 / 1.41 / 0.81	1.81
GYTFDDYAMH	GISWNSGSIGYADKVK	VGAGGGYFDY	3.88 / nd / 5.34	4.61
GFEFDDYAMH	GISWNSGSAGYADSVK	VGSGGGYFDY	4.96 / nd / 4.16	4.56
GFTFDDYAMH	GISWNSGSIGYADSVK	VGPGGGYFDY	nd / nd / nd	nd
GFTFDKYAMH	GISWNSGSIGYHDSVK	VGEGGGYFDY	nd / nd / nd	nd
GFTFMDYAMH	GISWNSGSIGYADSVK	VGNGIGYFDY	2.02 / 2.05 / 1.92	2.00
GFTFDDYFMH	GISWNSGSIGYADSVK	VGVGGGYFDY	4.88 / nd / 4.75	4.82
GPTFDDYAMH	GISWNSGSIGKADSVK	VGPGGGYFDY	nd / nd / 3.79	3.79
GFTFDDYAMH	GISWNSGSRGYADSVK	VGVGGGYFDD	1.17 / 1.19 / 0.80	1.05
GFTFDDYAMH	GISWKSGSIGYADSVK	VGVGGGYFDM	nd / nd / nd	nd

The first 5 entries again:

CDR-H1	CDR-H2	CDR-H3	log10 Kd (nM) by replicate	mean, log10 nM
GFTFDDYLMH	GISWNSGSIGGADSVK	VGKGGGYFDY	nd / nd / nd	nd
GFTFDDYAMH	GISWDSGSIGYEDSVK	VGKGGGYFDY	nd / 5.65 / nd	5.65
GFTPDYYAMH	GISWNSGSIGYADSVK	VGGGGGYFDY	nd / nd / nd	nd
GFTFDDYTMH	GISWNSGSIGYADYVK	VGDGGGYFDY	nd / nd / nd	nd
GFTFDDYAMS	GISWNSGAIGYADSVK	VGHGGGYFDY	4.82 / 4.93 / 4.69	4.82

From the AlphaSeq antibody data of Engelhart et al. 2022 (doi:10.1038/s41597-022-01779-4), copy in the FLAb collection.